# scFv variants of Ab-14 (light chain) against a SARS-CoV-2 spike peptide

All variants were tested on one target, the spike HR2 peptide PDVDLGDISGINAS (SARS-CoV-2).

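The starting antibody came from a phage panning campaign against this peptide. The variants were designed computationally from a first round of random CDR variants and then made and measured. Several design methods are mixed in this list. Affinity was read by AlphaSeq, a pooled yeast mating assay with surface-displayed partners. Pairs that bind mate more often; barcode pairs of the diploids are counted by sequencing. The ratio of observed to expected reads was calibrated, replicate by replicate, on BCL2-family standards whose Kd was known from biolayer interferometry. Each pool was mated in six replicate cultures.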

Ab-14 is the parent antibody, in scFv form: VH, then three GGGGS repeats, then VL. The heavy chain is unchanged in all variants.
VH: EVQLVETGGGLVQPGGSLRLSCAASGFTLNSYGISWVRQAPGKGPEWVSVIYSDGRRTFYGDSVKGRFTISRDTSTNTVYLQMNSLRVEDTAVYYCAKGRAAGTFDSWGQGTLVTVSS
VL: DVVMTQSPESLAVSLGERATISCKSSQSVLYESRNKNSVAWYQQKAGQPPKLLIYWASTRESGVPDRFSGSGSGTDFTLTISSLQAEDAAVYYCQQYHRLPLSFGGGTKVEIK

The parent's light chain CDRs are KSSQSVLYESRNKNSVA, WASTRES, QQYHRLPLS; each variant's own CDRs replace them letter for letter.
Scale: log10 of Kd in nM, estimated from mating counts; low values are strong binders.
The mean shown is taken over the replicates in which the pair was detected.
"nd" marks a missing value. The strain was present, yet no cells mated with the target were sequenced in any replicate, which points to weak or no binding.
Three control strains display no target. For all light chain designs, 4% of the pairings with them gave a signal, with a median of 2.64 and one signal in twenty below 1.59, so weak values seen in few replicates may be background.

mean log10 Kd (nM) | detected | CDR-L1 | CDR-L2 | CDR-L3
0.52 | 6 of 6 | KISQMVRVGSTHSNSIA | EEETRAD | QQYHRLPLS
-0.10 | 6 of 6 | KMSQSVLYESRNSNAVA | QASQRES | QQYHRLPLS
0.85 | 6 of 6 | KSSNSVNTESFHKNSVA | MASTRES | QQYARLPLS
0.08 | 6 of 6 | KLSPSVMYESRMKNSVA | MASTRYE | QQYHRLPLS
-0.22 | 6 of 6 | KFSQWVLYESRTKNSVA | NGSTRES | QQYHRLPLS
-0.33 | 6 of 6 | KMQQSQLYESRNKNSVA | NASTRES | QQYHRLPLS
-0.11 | 6 of 6 | KLQQSELYESRNKNSVA | DASTRLS | QQYHRLPLS
0.35 | 6 of 6 | KMREDFYHGQVETSAIA | DGEHLNM | QQYSHLPLS
1.20 | 2 of 6 | ELFFNDFQLAIESNSIA | HASLREV | QQYAHLPLV
nd | 0 of 6 | KSPQSVLYESRNKNSVA | WASYRES | QQYHRLPLG
0.67 | 6 of 6 | KIGMTLNQLYEKANNVA | DLVMREN | QQYHRLPLS
nd | 0 of 6 | KSSQTVLYESRRKNSVA | WASTRES | QQYHRLPLS
0.62 | 6 of 6 | KFMTSGEYQMHEQNNIA | QGNIKTV | QQYFRLPIS
2.84 | 1 of 6 | KSSQSVLLESRNKNSVA | WASRRES | QQYHRLPLS
0.91 | 6 of 6 | RADAYPPIQGNNIDSVA | ENAIRLD | QQYARLPLS
-0.02 | 6 of 6 | KQSQSELYESRNKNSVA | NASQRES | QQYHRLPLS
0.00 | 6 of 6 | KLSQSVLYEMRNKNSVA | EASTRES | QQYHRLPLS
-0.58 | 6 of 6 | KFSQSQLYESRNKNAVA | NASTRES | QQYHRLPLS
0.86 | 3 of 6 | KSEQSVLYESRNKNSVA | WASTRES | QQYARLPLS
-0.22 | 6 of 6 | KVSISYLLESRNKNSVA | EASTRED | QQYHRLPLS
1.06 | 6 of 6 | KFSQSVLYETRTKNSVA | NASTRES | QWYHRLPLS
0.08 | 6 of 6 | KLAQSVLYESRNKNSVA | NASTRMS | QQYHRLPLS
0.56 | 6 of 6 | KLQNFSQEYNKMWNNIA | DMTMKHT | QQYNRLPLE
0.56 | 6 of 6 | KSSQSVLYEDRNKPSVA | DASTRVS | QQYHRLPLS
0.47 | 6 of 6 | HISQMVMYGSCNPNNVA | QVSTREE | QQYHRLPLS
0.26 | 6 of 6 | KLQNSYEYESRMKNSVA | NASQRLE | QQYHRLPLS
1.78 | 1 of 6 | KSSQKVLYESRNKNSVA | WASTREL | QQYHRLPLS
-0.37 | 6 of 6 | KSLQSSLYESRNKNSVA | HASTRED | QQYHQLPLS
-0.13 | 6 of 6 | KLDQSGLYESRNKNSVA | EASTRES | QQYHRLPLS
0.35 | 6 of 6 | QLEVERGQEWKNGAAIA | GNTESLH | QQYAMLPLS
0.26 | 6 of 6 | KIQSHLSQSFASWNNIA | DREQSAE | QQYNRLPLV
2.48 | 6 of 6 | KSLQSHLYESRNKNSVA | WASTRES | QQYHRLPLS
0.61 | 6 of 6 | KLQQSQLYESRNKNSVA | NASTRLD | QQYHRLPLS
-0.23 | 6 of 6 | KSSISYLELSRNKNSVA | EASTRES | QQYHRLPLS
-0.10 | 6 of 6 | KISQSVLYESRNKNSVA | DASTRES | QQYHRLPLS
0.28 | 6 of 6 | KSSYSYLYESRNKNSVA | AASTRES | QQYHRLPLS
0.44 | 6 of 6 | KIGMSLNQLMHKKNNVA | DLVERET | QQYHRLPLS
1.17 | 6 of 6 | KIGLVTNGISFSTNSVA | EQSTREN | QQYDRLPLS
-0.63 | 6 of 6 | KSSQSVLYESRNPNSVA | HASTRES | QQYNRLPLS
nd | 0 of 6 | MFSQLVYMGSRTKNAVA | QASTREN | QQYHRLPLS
0.64 | 6 of 6 | HISPSFMVESKLKNSVA | QTETRVE | QQYDRLPLS
0.00 | 6 of 6 | KLMGSMEYESRNKNAVA | EASTRES | QQYHRLPLS
1.63 | 1 of 6 | TISQSTYIESFNKNSVA | QTSTRME | QDYDRLPLS
0.28 | 6 of 6 | KVQEQKLYWSRNKNSVA | EASTRES | QQYHRLPLS
0.00 | 6 of 6 | KVYQSVLYESRNKNSVA | EASTRES | QQYHRLPLS
-0.14 | 6 of 6 | KVSQSWLYESRNKNNVA | NASTRES | QQYHRLPLS
-0.48 | 6 of 6 | NSSQSWLYESRNKNSVA | GANTRES | QQYHRLPLS
0.16 | 6 of 6 | KMQQSYLYESRNCNSVA | NASTRLW | QQYHRLPLS
0.16 | 6 of 6 | MMSQVTGLGQRQRNNVA | QTSTRED | QQYDRLPLI
nd | 0 of 6 | MLSQMWAIGSKVKNSVA | QASMRFN | QQYDRLPLI
0.58 | 6 of 6 | IIAEQNMHVGIGANAIA | NATVRSA | QQYLRLPLM
nd | 0 of 6 | IVSQLMLWGYHAKNSIA | EAQTRLN | QQYDRLPLD
0.59 | 6 of 6 | KFFGGIPEQERDDYSIA | KGTLREV | QQYQRLPLS
2.29 | 5 of 6 | TISQMFMMENQFKNSVA | QASTRES | QCYDRLPLS
0.72 | 6 of 6 | KQQQSELQSSRNKNSVA | NASERES | QQYHRLPLS
1.26 | 6 of 6 | KLQWQQYGENQQEAAIA | NETTVLQ | QQYFKLPLT
2.87 | 3 of 6 | TFNLEYQGHNEDHNNIA | ETENKTD | QQYARLPLI
0.87 | 6 of 6 | KLSQSVGYYSRNKNSVA | WASQRES | QQYHSLPLS
1.33 | 1 of 6 | MISQVLNTLTRTGNNVA | DLQEREQ | QQYFRLPLS
-0.20 | 6 of 6 | KLSMSMLYESRNKNSVA | EASTRES | QQYHRLPLS
0.06 | 6 of 6 | KLSQSVEYEARDKNSVA | DASTRMS | QQYHRLPLS
nd | 0 of 6 | KSSQSVLYESRNKNSVA | WASTRRS | QQYHRLPLI
-0.13 | 6 of 6 | TIGPMLMTESHNKNNVA | GMQTRER | QQYHRLPLS
0.29 | 6 of 6 | KSSQSVLPESRNKNSVA | QASTRES | QQYHRLPLS
0.15 | 6 of 6 | KSQQSQLYESRNFNSVA | HASTRCD | QQYHRLPLS
0.65 | 6 of 6 | NVGNEDPGQNYMHDSIA | GRSLRVE | QQYWRLPLL
1.68 | 6 of 6 | TIGQMLMQGIRNRSNVA | EVSQRLN | QQYDRLPLM
0.19 | 6 of 6 | NMHNMCYQYENYGNSIA | HANLREN | QQYSRLPFT
2.30 | 2 of 6 | MVSQLMVWGLHTKNSIA | EAQMRLN | QQYDRLPLF
2.18 | 6 of 6 | KVSQSVLYEERNKNSVA | NASQRES | QQYHRLPLS
-0.13 | 6 of 6 | KSPQSVLYESRNKNSVA | SASTRES | QQYVRLPLS
1.99 | 6 of 6 | KSSQSVLYEDRNKQSVA | WASTRES | QQYHRLPLS
-0.26 | 6 of 6 | KLDQSELYESRNKNSVA | EASQRES | QQYHRLPLS
-0.14 | 6 of 6 | KFSQSVLYESRMKNGVA | NASTRES | QQYHRLPLS
0.78 | 6 of 6 | KIGHTLNTLYEKANNVA | DLVERED | QQYHRLPLS

Top 9 of the variants detected in all replicates, tightest first:

CDR-L1	CDR-L2	CDR-L3	mean log10 Kd (nM)	detected
KSSQSVLYESRNPNSVA	HASTRES	QQYNRLPLS	-0.63	6 of 6
KFSQSQLYESRNKNAVA	NASTRES	QQYHRLPLS	-0.58	6 of 6
NSSQSWLYESRNKNSVA	GANTRES	QQYHRLPLS	-0.48	6 of 6
KSLQSSLYESRNKNSVA	HASTRED	QQYHQLPLS	-0.37	6 of 6
KMQQSQLYESRNKNSVA	NASTRES	QQYHRLPLS	-0.33	6 of 6
KLDQSELYESRNKNSVA	EASQRES	QQYHRLPLS	-0.26	6 of 6
KSSISYLELSRNKNSVA	EASTRES	QQYHRLPLS	-0.23	6 of 6
KVSISYLLESRNKNSVA	EASTRED	QQYHRLPLS	-0.22	6 of 6
KFSQWVLYESRTKNSVA	NGSTRES	QQYHRLPLS	-0.22	6 of 6

A sequence measured in both rounds can read differently, since the two assays cover different ranges.
Of ten entries with the parent sequence, four were seen in most replicates (averages 0.34 to 2.37), three in one and three in none, so single entries are noisy.
The authors' rule: three or more of the six replicates give a measured affinity, fewer mean a poor binder.

Source: Li et al. 2023 (doi:10.1038/s41467-023-39022-2), MIT Lincoln Laboratory and A-Alpha Bio; data file from the FLAb repository.